For 103 compounds, inhibition results are on record in PubChem BioAssay AID743247 (Broad Institute, 2014).

The structures appear in SMILES notation. Only a part is listed here, and it is no random draw. Active and inactive are the calls of the source.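 The calls were made as follows: active = mean inhibition across replicates of 30% or more, regardless of how many single replicates reach that level; inconclusive = mean under 30% yet at least half of replicates reach 30%; inactive = the rest.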

The assay in a line: blockers of fibronectin fibrillogenesis by fibroblasts – AH1F cells, Alexa488-fibronectin fluorescence, plate reader, primary screen (AID 743247).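 Also: positive control wells lacked labelled fibronectin entirely.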 The following applies: Alexa488-fibronectin deposition fluorescence, overnight, at 12.6 µM, stronger effect = higher value. In short, it runs like this:
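test system = AH1F fibroblasts assembling fluorescent fibronectin matrix | quantity = 10000 AH1F cells per well | buffer or medium = DMEM plus 2% serum, read in PBS | doses = single dose, pinned | incubation = 1 h cell attachment, overnight exposure to compound and label | detection = fluorescence at 485 nm excitation, 525 nm emission | read-out basis = inhibition from reduced deposited-fibronectin fluorescence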
With `CC(C)(C)C(=O)NC(Sc1ccncn1)C(Cl)(Cl)Cl` (stereo not drawn), the inhibition was inactive: 13%.
As to `O=[N+]([O-])c1ncn(CCn2ncnc2[N+](=O)[O-])n1`, the inhibition was inactive: 0.485%.
With `COC(=O)C1(C)COP(=O)(Nc2ccccc2)OC1` (stereo not drawn) the figure was inactive: -3.31%.
With `O=[N+]([O-])c1cccc(NC2=NCC(CBr)S2)c1` (stereo not drawn) the figure was inactive: -5.51%.
To `O=C(O)CNc1ccc([As](=O)(O)O)cc1` belongs inactive: 0.356%; to `O=P1(N(CCCl)CCCl)OCCCS1` (stereo not drawn), inactive: 8.15%.
In the case of `O=C(Nc1cc([As](=O)(O)O)ccc1O)c1ccccc1`, the inhibition was inactive: 5.08%.
To `Nc1ccc([As](=O)(O)c2ccc(N)cc2)cc1` belongs inactive: 5.31%.
With `C[N+]1=C2C=CC=CC=C2SC12C([N+](=O)[O-])=CC([N+](=O)[O-])=C[C-]2[N+](=O)[O-]` (stereo not drawn) the figure was inactive: 11.6%; with `CCN(/C(=N/P(=O)(N1CCOCC1)N1CCOCC1)N1CCOCC1)c1ccc(OC)cc1`, inactive: 9.78%; with `CC(C)c1nc(Nc2ccccc2)n(P(=O)(N(C)C)N(C)C)n1`, inactive: 3.16%.
With `CC(C)=N/N=C(\N)N[N+](=O)[O-]` the figure was inactive: 2.64%; with `c1cc(-c2nn[nH]n2)ccc1-c1nn[nH]n1`, inactive: -3.94%.
As to `COc1ccc(C2=NCC(CBr)S2)cc1` (stereo not drawn), the inhibition is inactive: 0.083%.
To `O=[N+]([O-])c1cccc2n[nH]nc12` belongs inactive: -5.27%.
With `Cc1ccc(NP(=O)(Oc2ccccc2)Oc2ccccc2)nc1` the figure was inactive: 10.7%; with `O=[N+]([O-])c1cc([N+](=O)[O-])c(CCNc2ccccc2)c([N+](=O)[O-])c1`, inactive: 5.26%.
To `Nc1cc(N)c2nonc2c1[N+](=O)[O-]` belongs inactive: -9.94%.
With `CC(C)CC(=O)NC(Sc1ccc(Cl)cc1)C(Cl)(Cl)Cl` (stereo not drawn), the inhibition is inactive: -8.37%.
For `O=C(NC(Sc1ccncn1)C(Cl)(Cl)Cl)c1ccccc1` (stereo not drawn), the inhibition is inactive: 0.192%.
With `NC(=O)c1cc([N+](=O)[O-])cc([N+](=O)[O-])c1N` the figure was inactive: 6.56%.
To `CN(C(=O)Cc1ccc(Cl)c(Cl)c1)[C@H]1CCCC[C@H]1N1CCCC1` belongs inactive: 7.9%; to `Cc1ccc(N/C(=N/P(=O)(N2CCOCC2)N2CCOCC2)N2CCOCC2)cc1`, inactive: -0.743%.
On to `Cc1ccc(OP(=O)(Nc2nccs2)Oc2ccc(C)cc2)cc1`, for which the inhibition was inactive: 2.49%.
With `Clc1ccc(Cl)c(NC2=NCC(CBr)S2)c1` (stereo not drawn) the figure was inactive: -1.93%.
For the compound `CCN(N=Nc1nonc1N)c1nonc1N`, the inhibition was inactive: 1.57%.
To `Nc1cccc2ccc([As](=O)(O)O)cc12` belongs inactive: 13.8%; to `CC(=O)Nc1ccc([As](=O)(O)O)cc1`, inactive: -5.61%.
To `O=C(O)c1ccccc1[As](=O)(O)O` belongs inactive: 3.45%; to `CCCC1OP(N)(=O)OCC1CC` (stereo not drawn), inactive: 10%.
With `O=P(Nc1nc2ccc(Cl)cc2s1)(c1ccccc1)c1ccccc1` the figure was inactive: -11.5%; with `Cc1cc(SC(NC(=O)c2ccc(F)cc2)C(Cl)(Cl)Cl)ncn1` (stereo not drawn), inactive: -0.744%; with `CN(C(=O)Cc1ccc(Cl)c(Cl)c1)[C@H]1CCCC[C@@H]1N1CCCC1`, inactive: -4.78%.
For `Cc1ccc(NP(=O)(Oc2ccccc2F)Oc2ccccc2F)nc1`, the inhibition was inactive: -3.54%.
In the case of `Cc1ccc(OP(=O)(Nc2ccccn2)Oc2ccc(C)cc2)cc1`, the inhibition is inactive: -3.13%.
To `O=C(OC1CN2CCC1CC2)c1ccccc1` (stereo not drawn) belongs inactive: -2.79%; to `CC(NC(=O)COC(=O)C(O)(c1ccccc1)c1ccccc1)c1ccccc1` (stereo not drawn), inactive: -16.8%; to `Cc1ccccc1OP(=O)(Nc1ccccn1)Oc1ccccc1C`, inactive: 2.18%.
With `O=c1c2cc([N+](=O)[O-])ccc2[nH]c2c([N+](=O)[O-])cc([N+](=O)[O-])cc12` the figure was inactive: 9.18%; with `CN(C)C(=O)Oc1noc2ccccc12`, inactive: 1.7%; with `O=C(NC1CCS(=O)(=O)C1)NP(=S)(Oc1ccccc1)Oc1ccccc1` (stereo not drawn), inactive: -8.97%.
With `CCNC(=S)/N=C(\N)N[N+](=O)[O-]` the figure was inactive: -0.113%; with `c1ccc(-c2nn[nH]n2)c(-c2nn[nH]n2)c1`, inactive: 5.11%; with `Cc1ccc(NP(=O)(Oc2cccc(C)c2)Oc2cccc(C)c2)nc1`, inactive: -11.7%.
On to `O=P1(N(CCCl)CCCl)OCCC2CCCCN21` (stereo not drawn), for which the inhibition is inactive: -0.644%.
With `CC(=O)c1ccc(N2CC2c2ccncc2)cc1` (stereo not drawn) the figure was inactive: 5.79%; with `N#C/C(=C\c1ccc(N(CCBr)CCBr)cc1)C(N)=O`, inactive: 5.59%.
With `COC(=O)C1(C)COP(=O)(NCc2ccccc2)OC1` (stereo not drawn) the figure was inactive: -7.89%; with `Cc1ccccc1CN(C)C(=O)COC(=O)C(O)(c1ccccc1)c1ccccc1`, inactive: 2.91%.
Turning to `C[C@H]1OP(=O)(Oc2ccccc2)C[C@@H]2O[C@@H]21` (stereo partly drawn), the inhibition is inactive: 3.69%.
With `C[C@@H]1C=CCP(=O)(Oc2ccccc2)O1` (stereo partly drawn) the figure was inactive: -1.56%; with `CC(=O)Nc1ccc([As](=O)(O)O)c(O)c1`, inactive: -1.35%.
To `CC(=O)Nc1ccc(Oc2c([N+](=O)[O-])cc([N+](=O)[O-])cc2[N+](=O)[O-])cc1` belongs inactive: 7.84%.
With `CCOc1ccc(C2=NCC(CBr)S2)cc1` (stereo not drawn) the figure was inactive: 1.04%; with `CCc1cc(O)c([N+](=O)[O-])c(C)c1[N+](=O)[O-]`, inactive: 1.3%.
Take `CC(C)C(=O)NC(Sc1ccccc1)C(Cl)(Cl)Cl` (stereo not drawn): the inhibition was inactive: 7.4%.
With `c1nnnn1CCn1cnnn1` the figure was inactive: -17.9%.
With `O=[N+]([O-])c1ncn(CCn2cnc([N+](=O)[O-])n2)n1` the figure was inactive: 1.42%; with `CC(=O)NC(SC(=S)N(C)C)C(Cl)(Cl)Cl` (stereo not drawn), inactive: -11.4%; with `O=[As](O)(c1ccccc1)c1ccc(O)cc1`, inactive: 3.16%.
`C/C(N)=N\P(=O)(OCc1ccccc1)OCc1ccccc1`: the inhibition was inactive: -4.99%.
With `C(Cc1nn[nH]n1)Cc1nn[nH]n1` the figure was inactive: -5.89%.
To `Nc1ccc([As](=O)(O)c2ccc([N+](=O)[O-])cc2)cc1` belongs inactive: 0.703%; to `COc1ccc(N)c([N+](=O)[O-])c1[N+](=O)[O-]`, inactive: 0.515%.
With `Nc1ccc(CCCCOc2ccccc2)cc1` the figure was inactive: -5.57%.
For the compound `CN(C)C1(CNC(=O)c2ccc(Cl)c(S(N)(=O)=O)c2)CCCCC1`, the inhibition was inactive: -1.99%.
With `O=P(Nc1ccccn1)(c1ccc(Br)cc1)c1ccc(Br)cc1` the figure was inactive: 2.49%.
With `O=P(Nc1nc2ccccc2s1)(c1ccccc1)c1ccccc1` the figure was inactive: 9.46%; with `C[C@H]1OP(=O)(Oc2ccccc2)[C@H](O)[C@H](O)[C@H]1N=[N+]=[N-]` (stereo partly drawn), inactive: 0.968%; with `O=P1(Nc2ncccn2)COc2ccccc2OC1`, inactive: -7.7%.
With `Cc1ccc(S(=O)(=O)N(CCCN)CCCc2c(C)nc(N)[nH]c2=O)cc1` the figure was inactive: 4.6%; with `O=[As](O)(c1cccs1)c1cccs1`, inactive: 4.29%.
Consider `Cc1ccc(OCC(=O)OC2CN3CCC2CC3)cc1` (stereo not drawn), for which the inhibition is inactive: 17%.
To `NS(=O)(=O)c1cccc(NC(=O)COC(=O)C(O)(c2ccccc2)c2ccccc2)c1` belongs inactive: -1.97%.
With `O=P1(Nc2ccc(Br)cn2)COc2ccccc2OC1` the figure was inactive: -10.9%.
With `Nc1cccc([As](=O)(O)c2ccccc2)c1` the figure was inactive: -13.7%; with `Cc1ccc(C(=O)OC2CN3CCC2CC3)cc1` (stereo not drawn), inactive: 3.15%.
Turning to `CC1CCC(C(C)C)C(OP(=O)(Nc2ccccn2)c2ccccc2)C1` (stereo not drawn), the inhibition was inactive: -5.33%.
To `O=C(/C=C/c1ccccc1)OC1CN2CCC1CC2` (stereo not drawn) belongs inactive: -7.09%; to `CCCC1OP(=O)(Nc2ccccc2)OCC1CC` (stereo not drawn), inactive: -19.3%; to `CN(C)C1(CNC(=O)c2ccc(S(C)(=O)=O)cc2)CCCCC1`, inactive: 2.56%.
With `COc1ccccc1CNC(=O)COC(=O)C(O)(c1ccccc1)c1ccccc1` the figure was inactive: 1.95%; with `CN(C(=O)Cc1ccc(Cl)c(Cl)c1)[C@@H]1CCCC[C@H]1N1CCCC1`, inactive: -0.754%.
Consider `CC(C)/C=N\N=C(\N)N[N+](=O)[O-]`, for which the inhibition is inactive: 12.5%.
With `CCOP(=O)(Nc1ccc(C)cn1)OCC` the figure was inactive: -14.5%.
To `CN(CCCl)Cc1cc(Cl)c(NC2=NCCN2)c(Cl)c1` belongs inactive: -0.94%; to `CCC1=CC2Cc3nc4ccc(Cl)cc4c(N)c3C(C1)C2` (stereo not drawn), inactive: 4.9%.
Regarding `O=P1(Nc2ccccn2)COc2ccccc2OC1`, the inhibition was inactive: -10.2%.
For the compound `CCOP(=O)(NC(=NC(C)c1ccccc1)NC(C)c1ccccc1)OCC` (stereo not drawn), the inhibition was inactive: 0.78%.
With `Clc1n[nH]nc1-c1nn[nH][15n]1` the figure was inactive: 0.723%.
With `O=P1(N(CCCl)CCCl)NCCC(C(F)(F)F)O1` (stereo not drawn) the figure was inactive: 3.79%; with `CC(C)(C)C(=O)NC(Sc1ncccn1)C(Cl)(Cl)Cl` (stereo not drawn), inactive: 1.78%.
To `CCCOP(=S)(Nc1nc(N)cc(=O)[nH]1)OCCC` belongs inactive: 12.3%; to `Nc1cccc2c([As](=O)(O)O)cccc12`, inactive: 6.13%; to `Cc1ccc(NCCc2c([N+](=O)[O-])cc([N+](=O)[O-])cc2[N+](=O)[O-])cc1`, inactive: -8.06%.
Regarding `CCOP(=O)(Nc1cccc2ccccc12)OCC`, the inhibition was inactive: -5.34%.
To `O=[As](O)(O)c1cccnc1` belongs inactive: 8.49%; to `COc1cc(C(=O)NCC2(N3CCOCC3)CCCCC2)cc(Cl)c1OC(C)C`, inactive: 2.23%; to `CS(=O)(=O)c1ccc(Cl)c(NC(=O)COC(=O)C(O)(c2ccccc2)c2ccccc2)c1`, inactive: 9.32%.
With `O=C(OC1CN2CCC1CC2)c1ccc(Cl)cc1` (stereo not drawn) the figure was inactive: -0.767%; with `O=[As](O)(c1cccc(O)c1)c1cccc(O)c1`, inactive: -7.09%.
In the case of `NC(=O)Nc1ccc([As](=O)(O)O)cc1`, the inhibition was inactive: -5.68%.
To `CN(C)C(=O)c1cc([N+](=O)[O-])cc2c1-c1c(cc([N+](=O)[O-])cc1[N+](=O)[O-])C2=O` belongs inactive: 0.749%.

In general, inhibition refers to the relative decrease from the control value, in per cent.
